{"source": "paper PMC4803471", "about": "(Anesthesiology, 2016)", "assay": "Octanol:water partition coefficient determination", "type": "physicochemical", "details": "mean ± SD", "data": [{"substance": "4-Pyridine carboetomidate [Compound 7]", "values": [{"measurement": "Octanol:Buffer Partition Coefficient", "value": "753 ± 63"}]}]}
